The values that follow are results of earlier work, collected in PMC9895975, “Self-association of the glycopeptide antibiotic teicoplanin A2 in aqueous solution studied by molecular hydrodynamics” (Scientific Reports, 2023).

The conditions of data set [1]: cited from earlier work.
For data set [2] the following is noted: intravenous injection; also printed as 10 mg/L; cited from earlier work.
The conditions of data set [3]: reversible, above a similar concentration; cited from earlier work. An excerpt: There are some similarities with another “last line of defence” glycopeptide antibiotic vancomycin[33],[55] […] On the other hand, teicoplanin with its higher degree of glycosylation (two residues in vancomycin versus three residues in teicoplanin) and the lipid chains attached to one of the glcNAc residue self-associates to give a much larger 18–19mer structure in solution, a structure which is broken by the hydrogen bond and ion ...

teicoplanin A2: the “penetration into human aqueous humour below the cornea” value in data set [1] (10 mg/mL eye drops) is “little penetration”. The “penetration into the aqueous humour” value in data set [1] (subconjunctival injection (approximately 0.5 mL) of 25 mg) is “no penetration”. The “serum concentration in the clinical setting” value in data set [2] is ~ 10 μg/mL.
On to vancomycin, for which the “self-associative behaviour in solution” value in data set [3] is listed as “monomer–dimer only”.
